Here are results for one compound from patent US20090306094A1 (Bristol-Myers Squibb Company, priority 2006, published 2009).

The test has as its system Crkl phosphorylation (BCR-ABL substrate). It counts as cell-based.

Take `Cc1nc(Nc2ncc(C(=O)Nc3c(C)cccc3Cl)s2)cc(N2CCN(CCO)CC2)n1` [dasatinib, N-(2-chloro-6-methylphenyl)-2-[[6-[4-(2-hydroxyethyl)-1-piperazinyl]-2-methyl-4-pyrimidinyl]amino]-5-thiazolecarboxamide]: the Crkl phosphorylation entry is reported as “inhibited in a dose-dependent manner”.
